{
  "source": "patent US20210221791A1",
  "about": "“COMPOUNDS” (UNIVERSITETET I OSLO, priority 2016, published 2021)",
  "test_system": "K. pneumoniae K66-45",
  "type": "cell-based",
  "details": "inhibitor 25 mg/L",
  "experimental": "After plating and grown overnight at 37° C., only single colonies, ignoring any touching the edges of the plate, were counted.\n10^9 CFU K66-45 (Mueller-Hinton broth, no selection) was plated and grown overnight, 37° C. Only single colonies, ignoring any touching the edges of the plate, were counted.",
  "note": "Like-named read-outs stand apart in the source and are kept apart here.",
  "data": [
    {"smiles": "CN(C[C@H](O)[C@@H](O)[C@H](O)[C@H](O)CO)C(=O)c1ccc(CN(Cc2ccccn2)Cc2ccccn2)nc1", "note": "[Example 26, 6-((bis(pyridin-2-ylmethyl)amino)methyl)-N-methyl-N-((2S,3R,4R,5R)-2,3,4,5,6-pentahydroxyhexyl)nicotinamide]", "values": [
      {"measurement": "RF - no of colonies", "setting": "MEM 1 mg/L", "value": 74},
      {"measurement": "RF - no of colonies", "setting": "MEM 2 mg/L", "value": 35},
      {"measurement": "RF - no of colonies", "setting": "MEM 4 mg/L", "value": "nc (n.c. = no colonies)"},
      {"measurement": "RF - no of colonies", "setting": "MEM 8 mg/L", "value": "nc (n.c. = no colonies)"}
    ]}
  ]
}
